System: PSA, UBE2C, FKBP5, CYCLIN A2, TMPRSS2, and CDC20 transcripts
Assay: Transcript levels of FL-AR and AR-V7 regulated genes in C4-2B-MDVR
Format: cell-based, human
Description: Compound 13a decreased transcript expression of the M-phase cell cycle genes UBE2C, CYCLIN A2, CDC20 and PSA, FKBP5, and CDC20 (FIGS. 7B, 7D, and 7F).

Structure (SMILES): CNC(=O)c1ccc(N2C(=S)N(c3ccc(C#N)c(C(F)(F)F)c3)C(=O)C2(C)C)cc1F [Enzalutamide, enzalutamide]
- expression of CDCl2O: no effect
- expression of UBE2C and cyclin A2 (in the presence of androgen): increased

— US12109179B2, “Pharmaceutical compositions and combinations comprising inhibitors of the androgen receptor and uses thereof” (ESSA Pharma Inc., priority 2019, dated 2024)
